Source: PubChem BioAssay AID602163 (The Scripps Research Institute Molecular Screening Center, 2012)
The entries are a selection whose mix differs from that of the whole data set. Some salts or complexes appear as unconnected parts, following the source record. Active and inactive are the calls of the source. No stated cut-off is given here; in the data, active means activation above about 7.5%; inactive means the rest.

Test system: Methionine sulfoxide reductase A (Bos taurus)
Experiment: bovine MsrA enzyme activators, primary screen, biochemical, absorbance, HTS (AID 602163);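 further: 0% = vehicle and 100% = reference activator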
Details: purified bovine MsrA, absorbance read-out; at 10.6 µM; active compounds read high

Row | Compound | activation
1 | Cc1c(C(c2ccc3c(c2)OCO3)c2c(C)n(C)n(-c3ccccc3)c2=O)c(=O)n(-c2ccccc2)n1C.O=[N+]([O-])c1cc([N+](=O)[O-])c(O)c([N+](=O)[O-])c1 | inactive: -2.28%
2 | O=[N+]([O-])c1ccc(OP2(=O)COCCO2)cc1 (centres undefined) | inactive: -0.18%
3 | O=[N+]([O-])c1cc([N+](=O)[O-])c(NCC2CCS(=O)(=O)C2)c([N+](=O)[O-])c1 (centres undefined) | inactive: -0.27%
4 | Cc1cc(-c2cccc3ccccc23)c(C)cn1.O=[N+]([O-])c1cc([N+](=O)[O-])c(O)c([N+](=O)[O-])c1 | inactive: -8.23%
5 | CN(C)CCOC(=O)C(O)(c1ccccc1)C1CCCCC1 (centres undefined) | inactive: -1.18%
6 | COc1ccc(NP(C)(=O)Oc2ccccc2OC)cc1 (centres undefined) | inactive: -1.42%
7 | COc1ccc(OP(C)(=O)Nc2cccc(Br)c2)cc1 (centres undefined) | inactive: 0.17%
8 | Cc1ccccc1NP(C)(=O)Nc1ccccc1C | inactive: -0.92%
9 | O=[N+]([O-])c1cc([N+](=O)[O-])c(C(F)(F)F)c([N+](=O)[O-])c1O | inactive: 0%
10 | CP(=O)(Nc1ccc2c(c1)OCCO2)Oc1ccccc1 (centres undefined) | inactive: 0%
11 | CCOP(C)(=S)SCC(=O)NC(C)(CC)C(=O)O (centres undefined) | inactive: 0.09%
12 | CP(=O)(Nc1ccc(SC(F)(F)F)cc1)Oc1ccc(F)cc1 (centres undefined) | inactive: -3.13%
13 | COc1ccc2c(c1O)-c1c(O)c(OC)cc3c1[C@H](C2)[N+](C)(C)CC3.O=[N+]([O-])c1cc([N+](=O)[O-])c([O-])c([N+](=O)[O-])c1[O-] | inactive: -5.1%
14 | O=C(OC1CN2CCC1CC2)c1ccc([N+](=O)[O-])cc1 (centres undefined) | inactive: 0.7%
15 | O=C(OCCN1CCN(CCOCc2ccccc2)CC1)C(O)(c1ccccc1)c1ccccc1 | inactive: -5.68%
16 | CP(=O)(Nc1ccccc1F)Oc1ccccc1 (centres undefined) | inactive: -1.17%
17 | CC(C)c1ccc(OP(C)(=O)Nc2ccc(SC(F)(F)F)cc2)cc1 (centres undefined) | inactive: 1.04%
18 | O=[N+]([O-])c1cc([N+](=O)[O-])c(Nc2ccc(Cl)cc2)c([N+](=O)[O-])c1 | inactive: 3.44%
19 | CP(=O)(Nc1ccccc1)Oc1ccc(F)cc1 (centres undefined) | inactive: -0.75%
20 | CCCCCOc1ccc(NP(C)(=O)Oc2ccc(Cl)cc2Cl)cc1 (centres undefined) | inactive: 2.59%
21 | O=[N+]([O-])c1cc([N+](=O)[O-])c(OC2CCCCC2O)c([N+](=O)[O-])c1 (centres undefined) | inactive: -3.02%
22 | Cc1c([N+](=O)[O-])cc([N+](=O)[O-])c(Br)c1[N+](=O)[O-] | inactive: -2.03%
23 | CCN(CC)CCCOC(=O)C(O)(c1ccccc1)C1CCCCC1 (centres undefined) | inactive: -1.38%
24 | CCOC(=O)c1ccc(NP(C)(=O)Oc2ccc(F)cc2)cc1 (centres undefined) | inactive: -4.38%
25 | COc1ccc(OP(C)(=O)Nc2ccc(SC(F)(F)F)cc2)cc1 (centres undefined) | inactive: -0.93%

Row | Compound | activation
26 | CCN(CC)CCCNc1ccccc1[N+](=O)[O-].O=[N+]([O-])c1cc([N+](=O)[O-])c(O)c([N+](=O)[O-])c1 | inactive: -5.46%
27 | CP(=O)(OCCOc1ccccc1)OCCOc1ccccc1 | inactive: -6.81%
28 | CCCCCCCCCCCCCCCC1C[N+](C)(C)CCOP(C)(=O)O1 (centres undefined) | inactive: -2.58%
29 | CP(=O)(Nc1ccc(Cl)cc1Cl)Oc1ccccc1 (centres undefined) | inactive: -5.85%
30 | COc1ccccc1OP(C)(=O)Nc1ccc(C)c(C)c1 (centres undefined) | inactive: -1.04%
31 | COc1ccc(OP(C)(=O)Nc2ccccc2Br)cc1 (centres undefined) | inactive: -3.54%
32 | Cc1cc(C)cc(OP(C)(=O)Nc2cccc(C(F)(F)F)c2)c1 (centres undefined) | inactive: -6.75%
33 | O=C1C(O)=C([N+](=O)[O-])C(=O)C(O)=C1[N+](=O)[O-] | inactive: -3.73%
34 | COc1ccccc1OP(C)(=O)Nc1ccc(C)cc1C (centres undefined) | inactive: -5.92%
35 | CP(=O)(Nc1ccccn1)Oc1ccccc1 (centres undefined) | inactive: -10.8%
36 | CCc1ccc(OP(C)(=O)O)cc1 | inactive: -5.06%
37 | O=[N+]([O-])c1cc([N+](=O)[O-])c(Nc2ccccn2)c([N+](=O)[O-])c1 | inactive: 1.15%
38 | Cc1c(NP(C)(=O)Oc2ccc(C(C)C)cc2)c(=O)n(-c2ccccc2)n1C (centres undefined) | inactive: -1.12%
39 | COc1ccc(OP(C)(=O)Nc2ccccn2)cc1 (centres undefined) | inactive: -2.55%
40 | CN(C)CCOC(=O)C(O)(c1ccccc1)C1CCCC1 (centres undefined) | inactive: -2.28%
41 | COc1ccccc1OP(C)(=O)Nc1ccc(Br)cc1 (centres undefined) | inactive: -3.41%
42 | CN(C)C(=O)c1c([N+](=O)[O-])cc([N+](=O)[O-])cc1[N+](=O)[O-] | inactive: 0.78%
43 | CC(C)(C)c1ccc(OP(C)(=O)O)cc1 | inactive: 0.5%
44 | COc1ccccc1OP(C)(=O)Nc1ccccc1Br (centres undefined) | inactive: 0.1%
45 | CP(=O)(Nc1ccc(Cl)cc1)Oc1ccc(F)cc1 (centres undefined) | inactive: -0.19%
46 | O=C(OCCCN1CCCC1)C(O)(c1ccccc1)C1CCCCC1 (centres undefined) | inactive: -4.48%
47 | COc1ccccc1OP(C)(=O)Nc1c(C)n(C)n(-c2ccccc2)c1=O (centres undefined) | inactive: -3.77%
48 | CCc1ccc(OP(C)(=O)Nc2cccnc2)cc1 (centres undefined) | inactive: -1.19%
49 | CP(=O)(Oc1ccccc1)N1CCOC1=O (centres undefined) | inactive: 0.39%
